Target: androgen receptor (Homo sapiens, UniProt P10275)
Test: Measurement of agonist effect on androgen receptor (reporter gene assay, 11A11B2 cells)
Format: cell-based
Set-up: expressed in transfected cells
Conditions: compound concentration showing a transcription activity of 5% (0.1 nmol/L DHT = 100%, assay medium alone = 0%), 48 hours
Procedure: HeLa cells (purchased from Dai-Nippon Seiyaku K. K.) were cultured overnight in Dulbecco's Modified Eagle Medium containing no phenol red, but containing 3% charcoal-treated fetal bovine serum (hereafter referred to as DCC-FBS) (this medium is hereafter referred to as phenol-red-free DMEM). […]
The 11A11B2 cells were inoculated in a white clear-bottomed 96-well microplate (COSTAR) so that the cell concentration was 1.0×10^4/well, and were cultured overnight using phenol-red-free DMEM containing 3% DCC-FBS (hereafter referred to as the assay medium). Samples of the assay medium containing the compounds of the Examples and compounds of the Comparative Examples were added so that the final concentrations of the compounds of the Examples and compounds of the Comparative Examples were 1, 10, 100, 1,000 and 10,000 nmol/L), and the cells were cultured for 48 hours, after which the transcription activity value was measured. The transcription activity was measured using a Bright-Glo™ Luciferase Assay System (Promega).
The transcription activity rates of the compounds of the Examples were calculated from the transcription activity measured by the abovementioned method, with the transcription activity value obtained at 0.1 nmol/L DHT taken as 100%, and the transcription activity value in the case of the assay medium alone taken as 0%. […]

Protein sequences, listed by entry. Tags and fused reporters are not part of them. Lines headed by an entry give the natural chain unless they say otherwise; changes in a name come on top.
UniProt P10275: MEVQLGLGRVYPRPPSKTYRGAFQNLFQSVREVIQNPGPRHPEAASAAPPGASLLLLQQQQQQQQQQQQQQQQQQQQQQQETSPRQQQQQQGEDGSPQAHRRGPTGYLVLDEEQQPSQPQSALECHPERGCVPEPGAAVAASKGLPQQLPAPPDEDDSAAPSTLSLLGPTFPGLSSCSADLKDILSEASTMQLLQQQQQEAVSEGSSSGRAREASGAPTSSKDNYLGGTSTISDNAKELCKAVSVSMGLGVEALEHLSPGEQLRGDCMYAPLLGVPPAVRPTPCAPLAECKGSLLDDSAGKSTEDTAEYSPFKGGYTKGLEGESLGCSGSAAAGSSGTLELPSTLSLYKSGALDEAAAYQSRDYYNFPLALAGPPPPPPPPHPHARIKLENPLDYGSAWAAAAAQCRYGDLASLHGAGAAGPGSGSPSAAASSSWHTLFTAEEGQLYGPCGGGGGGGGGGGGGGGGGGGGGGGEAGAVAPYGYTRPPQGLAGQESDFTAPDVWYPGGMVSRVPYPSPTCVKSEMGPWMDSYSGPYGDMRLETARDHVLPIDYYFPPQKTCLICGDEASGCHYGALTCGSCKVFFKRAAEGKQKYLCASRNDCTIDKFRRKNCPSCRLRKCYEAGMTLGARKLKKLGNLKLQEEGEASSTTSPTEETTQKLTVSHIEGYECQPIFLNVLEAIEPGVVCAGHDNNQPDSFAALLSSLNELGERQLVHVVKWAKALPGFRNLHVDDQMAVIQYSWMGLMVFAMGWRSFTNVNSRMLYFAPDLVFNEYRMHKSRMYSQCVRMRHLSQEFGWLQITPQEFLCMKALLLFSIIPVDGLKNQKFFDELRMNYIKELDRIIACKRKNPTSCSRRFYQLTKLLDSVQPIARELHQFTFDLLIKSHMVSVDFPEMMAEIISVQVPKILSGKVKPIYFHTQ

CCNS(=O)(=O)N1CCC(N2C(=S)N(c3ccc(C#N)c(C(F)(F)F)c3)C(=O)C2(C)C)CC1 [Example 42, 4-[3-(1-ethylaminosulfonylpiperidin-4-yl)-4,4-dimethyl-5-oxo-2-thioxoimidazolidin-1-yl]-2-trifluoromethylbenzonitrile]
EC5: >10 µM

From patent US8470829B2 (priority 2004, dated 2013)
